By IC50 is commonly meant the concentration at which inhibition is half-maximal.

Protein sequences, listed by entry. Tags and fused reporters are not part of them. Residues count along the entry.
UniProt P35869, 11-848 limits assumed: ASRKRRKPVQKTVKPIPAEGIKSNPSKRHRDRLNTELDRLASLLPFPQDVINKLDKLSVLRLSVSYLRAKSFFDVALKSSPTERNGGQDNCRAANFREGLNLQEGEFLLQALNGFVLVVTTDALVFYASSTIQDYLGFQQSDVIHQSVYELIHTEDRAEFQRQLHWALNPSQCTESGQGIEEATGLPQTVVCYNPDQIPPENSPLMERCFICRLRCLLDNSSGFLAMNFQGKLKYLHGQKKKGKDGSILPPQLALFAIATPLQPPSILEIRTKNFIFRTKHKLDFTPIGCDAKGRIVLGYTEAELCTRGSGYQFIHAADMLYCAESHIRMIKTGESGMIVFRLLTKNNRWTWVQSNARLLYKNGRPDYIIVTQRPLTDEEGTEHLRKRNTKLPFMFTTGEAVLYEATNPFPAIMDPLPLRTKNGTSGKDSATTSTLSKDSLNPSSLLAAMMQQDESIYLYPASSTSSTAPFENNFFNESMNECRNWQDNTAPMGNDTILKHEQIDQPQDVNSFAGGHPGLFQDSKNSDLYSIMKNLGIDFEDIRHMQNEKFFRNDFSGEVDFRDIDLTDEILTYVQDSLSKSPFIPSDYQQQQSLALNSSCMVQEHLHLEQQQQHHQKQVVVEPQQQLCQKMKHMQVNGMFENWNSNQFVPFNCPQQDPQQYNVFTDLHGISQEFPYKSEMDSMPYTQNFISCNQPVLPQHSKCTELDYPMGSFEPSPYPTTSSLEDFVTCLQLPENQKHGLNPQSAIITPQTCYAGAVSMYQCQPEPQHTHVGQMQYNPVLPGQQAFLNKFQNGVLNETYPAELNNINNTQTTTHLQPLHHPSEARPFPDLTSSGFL
UniProt P30561, whole entry P471L/N533S/M589L: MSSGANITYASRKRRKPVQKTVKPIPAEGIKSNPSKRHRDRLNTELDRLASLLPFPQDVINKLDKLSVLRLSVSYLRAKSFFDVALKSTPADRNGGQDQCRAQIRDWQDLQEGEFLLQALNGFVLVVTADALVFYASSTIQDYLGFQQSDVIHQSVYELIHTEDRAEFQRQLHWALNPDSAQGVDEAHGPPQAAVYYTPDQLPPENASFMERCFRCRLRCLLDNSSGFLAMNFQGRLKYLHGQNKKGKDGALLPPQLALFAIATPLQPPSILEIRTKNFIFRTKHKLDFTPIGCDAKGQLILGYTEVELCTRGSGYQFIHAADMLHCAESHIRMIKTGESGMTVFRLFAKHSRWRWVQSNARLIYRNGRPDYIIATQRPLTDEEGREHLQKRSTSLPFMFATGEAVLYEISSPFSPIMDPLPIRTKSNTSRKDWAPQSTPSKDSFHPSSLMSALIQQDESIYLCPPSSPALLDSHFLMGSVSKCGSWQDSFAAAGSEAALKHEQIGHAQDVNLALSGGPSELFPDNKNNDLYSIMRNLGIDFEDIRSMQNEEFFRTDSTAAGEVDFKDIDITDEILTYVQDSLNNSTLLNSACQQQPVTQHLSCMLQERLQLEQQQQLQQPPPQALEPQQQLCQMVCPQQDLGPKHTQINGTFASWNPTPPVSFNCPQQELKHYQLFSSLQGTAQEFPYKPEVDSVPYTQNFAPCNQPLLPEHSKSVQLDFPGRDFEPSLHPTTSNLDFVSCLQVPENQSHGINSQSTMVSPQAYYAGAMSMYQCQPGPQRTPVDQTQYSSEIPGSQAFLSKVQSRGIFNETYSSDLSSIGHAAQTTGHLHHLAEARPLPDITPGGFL

Consider five compounds from patent publication US20230113037A1 (Bayer Aktiengesellschaft, priority 2019, published 2023).

Read-outs that look alike come from different tables or passages of the source.

Data set [1] deals with AHR (Homo sapiens, UniProt P35869). Description: In vitro assay 1: antagonism in human cell line (AHR transactivation, firefly luciferase reporter, kynurenic acid prestimulated). Format: cell-based. The method, then:
Examples were tested in selected biological assays one or more times. When tested more than once, data are reported as either average values or as median values, wherein • the average value, also referred to as the arithmetic mean value, represents the sum of the values obtained divided by the number of times tested, and • the median value represents the middle number of the group of values when ranked in ascending or descending order. If the number of values in the data set is odd, the median is the middle value. If the number of values in the data set is even, the median is the arithmetic mean of the two middle values.
Transactivation assays were carried out in U87 MG glioblastoma cells (ATCC #HTB-14) endogenously expressing AHR. In addition the cells were stably transfected with an AHR inducible firefly luciferase reporter gene construct that carried AHR-binding sites (DRE) in its promoter and a renilla reporter gene construct with constitutively active promoter. Kynurenic acid is an endogenous AHR activating ligand and was used to prestimulate test cells prior to testing the antagonistic properties of compounds.
As positive inhibition control cells supplemented with 150 μM kynurenic acid were incubated in presence of 5 μM Staurosporin. Normalization was done by positive and negative controls.
Firefly luciferase and Renilla activity was determined by the DualGlo Luciferase Assay System (Promega, #2920). Renilla activity was used to assess toxic effects of compounds.
Background: A reporter such as luciferase makes a cellular process visible.

The target in data set [2] is AHR (Mus musculus, UniProt P30561). In words: In vitro assay 3: antagonism in mouse cell line (AHR transactivation, firefly luciferase reporter, kynurenic acid prestimulated).
Where [3] appears, read: read-out: AHR Antagonism Human IC50, firefly luciferase reporter.
[4] abbreviates: read-out: AHR Antagonism Mouse IC50, Hepa 1c1c7 cells, 200 μM kynurenic acid, 20 hours, firefly luciferase reporter.

Consider `C[C@@H](Nc1nc2c(Br)cccc2c2nc(-c3cnn(C)c3)nn12)C(=O)NCC(C)(C)O`, for which the IC50 in data set [1] (setting [3]) amounted to 60.6 nM; in data set [2] (setting [4]) it was 47.2 nM.
On to `O=C1NCCNC[C@@H]1Nc1nc2c(C(F)(F)F)cccc2c2nc(-c3cnn(C4CC4)c3)nn12`, for which the IC50 in data set [1] (setting [3]) was 19.4 nM; in data set [2] (setting [4]) it was 36.3 nM.
`Cc1cc(-c2nc3c4ccccc4nc(N[C@@H]4CCCCNC4=O)n3n2)c(C#N)n1C`: the IC50 amounted to 10 nM in data set [1] (read-out: AHR Antagonism Human IC50) and 13.1 nM in data set [2] (read-out: AHR Antagonism Mouse IC50, mouse Hepa 1c1c7 cells, 200 μM kynurenic acid, 20 hours).
As for `C[C@@H](Nc1nc2c(C(F)(F)F)cccc2c2nc(-c3cnn(C)c3)nn12)C(=O)NCCN1CCN(C)CC1`, the figures for the half-maximal inhibitory concentration (IC50) in data set [1] (setting [3]) and in data set [2] (setting [4]) were 192 nM and 272 nM, respectively.
On the same counts, the results for `COc1ccc(-c2nc3c4cccc(Br)c4nc(N[C@H](C)C(=O)NCC(C)(C)O)n3n2)cc1` are 1.13 nM and 1.2 nM.
